From patent US10100282B2, “Differentiation of pluripotent cells” (FUJIFILM Cellular Dynamics, Inc., priority 2009, dated 2018)

Tested on: hESCs
Experiment: Cytokine matrix: serum-free EB hematopoietic differentiation, surface markers by flow cytometry
Assay type: cell-based, human
Procedure: Cells were collected from each well/condition and washed once with media. The cell pellet was digested using TrypLE™ or 0.5% trypsin for 5-10 minutes in a 37° C. incubator followed by washes with media and passage through a 70-μm cell strainer. […] Non-viable cells were excluded with 7-aminoactinomycin D (7-AAD, BD Biosciences). Live cell analysis was performed on a FACSCalibur™ or Accuri flow cytometer and Cell Quest software. hESCs adapted to feeder free growth on matrigel maintained using mTESR were preconditioned for three days in the presence of X-vivo-15 containing 0.1 ng/ml TGF-β and 20 ng/ml FGF-2. Cells were harvested using TrypLE for 6 minutes at 37 C. TrypLE™ was neutralized using EB basal media containing 1 μM ROCK inhibitor (H-1152), Soybean trypsin inhibitor (0.25 mg/ml). The cells were washed once in EB basal media containing 1 μM ROCK inhibitor and soybean trypsin inhibitor (0.25 mg/ml). The cells were plated in low attachment plates in EB basal media containing 1 μM ROCK inhibitor and soybean trypsin inhibitor (0.25 mg/ml). The media was changed the next day to EB basal media containing different cytokine formulations. The concentration of cytokines used is as follows: 25 ng/ml BMP-4, 25 ng/ml VEGF, 25 ng/ml SCF, 25 ng/ml Flt-3L, 10 ng/ml IL-3, 10 ng/ml IL-6, 20 ng/ml G-CSF; 20 ng/ml GM-CSF, 0.2 U/ml EPO, 10 ng/ml TPO and 10 ng/ml zebrafish FGF-2. The cytokine combinations used are listed below in Table 3. The EB cultures were half fed with fresh differentiation media every two days. The EB cultures were harvested on day 8, 12 and 17 of differentiation. The EB cultures were harvested by spinning down all the cells and digesting the EBs with TrypLE™ or 0.5% trypsin. The phenotype of the progenitor cell types was analyzed by flow cytometry and the cells were plated in methylcellulose media for CFU assays. “FLT3” refers to the Flt3 ligand below.

B1: IL3: Interleukin-3, a hematopoietic growth factor (protein, UniProt P08700 20-152, looked up)
Interleukin-3: APMTQTTPLKTSWVNCSNMIDEIITHLKQPPLPLLDFNNLNGEDQDILMENNLRRPNLEAFNRAVKSLQNASAIESILKNLLPCLPLATAAPTRHPIHIKDGDWNEFRRKLTFYLKTLENAQAQQTTLSLAIF
CD31 expressing cells (DAY 8, factor ABSENT): 0.5%
CD34 expressing cells (DAY 8, factor ABSENT): 1.0%
CD43 expressing cells (DAY 8, factor ABSENT): 0.3%
CD45 expressing cells (DAY 8, factor ABSENT): 0.2%
FLK-1 expressing cells (DAY 8, factor ABSENT): 1.5%
CD31 expressing cells (DAY 8, factor PRESENT): 1.0%
CD34 expressing cells (DAY 8, factor PRESENT): 1.3%
CD43 expressing cells (DAY 8, factor PRESENT): 1.4%
CD45 expressing cells (DAY 8, factor PRESENT): 0.2%
FLK-1 expressing cells (DAY 8, factor PRESENT): 2.3%
CD31 expressing cells (DAY 12, factor ABSENT): 1.6%
CD34 expressing cells (DAY 12, factor ABSENT): 2.0%
CD43 expressing cells (DAY 12, factor ABSENT): 1.4%
CD45 expressing cells (DAY 12, factor ABSENT): 1.3%
FLK-1 expressing cells (DAY 12, factor ABSENT): 0.6%
CD31 expressing cells (DAY 12, factor PRESENT): 2.4%
CD34 expressing cells (DAY 12, factor PRESENT): 2.3%
CD43 expressing cells (DAY 12, factor PRESENT): 3.0%
CD45 expressing cells (DAY 12, factor PRESENT): 2.7%
FLK-1 expressing cells (DAY 12, factor PRESENT): 0.4%
CD31 expressing cells (DAY 17, factor ABSENT): 1.8%
CD34 expressing cells (DAY 17, factor ABSENT): 2.5%
CD43 expressing cells (DAY 17, factor ABSENT): 1.4%
CD45 expressing cells (DAY 17, factor ABSENT): 1.0%
FLK-1 expressing cells (DAY 17, factor ABSENT): 1.2%
CD31 expressing cells (DAY 17, factor PRESENT): 11.2%
CD34 expressing cells (DAY 17, factor PRESENT): 2.4%
CD43 expressing cells (DAY 17, factor PRESENT): 12.1%
CD45 expressing cells (DAY 17, factor PRESENT): 12.2%
FLK-1 expressing cells (DAY 17, factor PRESENT): 2.4%
role during EB differentiation (serum free hematopoietic differentiation, days 8, 12, 17): play a role during later stages of EB differentiation
